Reference: PMC10899660, “Global fungal-host interactome mapping identifies host targets of candidalysin” (Nature Communications, 2024)

Key:
A549 cells = assay: Western blot of CCNH and γ-H2AX, A549 and CCNH-KD A549 cells; assay type: cell-based; conditions: 4 h
Protocol: (§1) Cells were lysed with cell lysis buffer (Beyotime, #P0013) on ice for 30 min. The supernatant of cell lysate was then collected in a table-top refrigerated centrifuge at 4 °C and 14,000 × g for 10 min. Protein concentration was determined by Pierce™ BCA Protein Assay Kit (Thermo Scientific™, #23227). Antibodies against the following proteins were used for Western blotting analysis: CCNH antibody (CST,Rabbit Source, Cat#2927, 1:1000 dilution), gama-H2AX antibody (CST, Rabbit Source, Cat#97185, 1:1000 dilution), GAPDH (D16H11) XP® Rabbit mAb (CST, Rabbit Source, Cat#5174 S, 1:1000 dilution), Anti-CDK2 (phospho T160) + CDK1 (phospho T161) antibody (Abcam, Rabbit Source, Cat#EPR17621, 1:1000 dilution), Anti-rabbit IgG, HRP-linked Antibody (CST, Goat Source, Cat#7074, 1:5000 dilution), […] Tag (D6W5B) Rabbit mAb (CST, Rabbit Source, Cat#14793, 1:1000 dilution), GFP (4B10) Mouse mAb (CST, Mouse Source, Cat #2955, 1:1000 dilution), Anti-mouse IgG,HRP-linked antibody (CST, Goat Source, Cat#7076, 1:5000 dilution). Membranes were treated with SuperSignal™ West Pico PLUS Chemiluminescent Substrate (Thermo Scientific™, #34577) prior to visualization in the Chemiluminescence Imaging Analysis System (BG-gdsAUTO720, Baygene). GAPDH was used as the loading control.

FaDu cells [1] = assay: Immunofluorescence of γ-H2AX formation and CCNH expression, FaDu cells; assay type: cell-based; conditions: 10 μM
Protocol: Cells were cultured on glass coverslips (#WHB-24-CS) in a 24-well plate. After candidalysin treatment, cells were fixed with 4% paraformaldehyde for 10 min and washed with prewarmed PBS for 3 times. Then cells were treated with 0.2% Triton X-100 for 5 min and blocked with PBS containing 10% FBS and 1% BSA for 1 h at 37 °C before incubation with primary antibody at 4 °C overnight. Then the coverslips with treated cells were immersed in HBSS containing 2 μM FM1-43 on ice for 1 min to stain the plasma membrane. After staining with antifade mounting medium with DAPI (Beyotime, #P0131), the cells were imaged under the confocal microscope. The antibodies used in this study are as follows: CCNH antibody (CST, Rabbit Source, Cat#2927, 1:500 dilution), Anti-gamma H2A.X (phospho S139) antibody (Abcam, Mouse Source, Cat#ab303656, 1:500 dilution), Goat Anti-Mouse IgG H&L (Alexa Fluor® 647) (Abcam, Goat Source, Cat#ab150115,1:500 dilution), Goat Anti-Rabbit IgG H&L (Alexa Fluor® 488) (Abcam, Goat Source, Cat#ab150077, 1:500 dilution).

FaDu cells [2] = assay: Western blot of CCNH and γ-H2AX, FaDu cells; assay type: cell-based
Protocol: as §1

CCNH = assay: Bimolecular fluorescence complementation (BiFC) assay in HEK-293T cells; assay type: binding, human; conditions: green fluorescence
Description: High-fidelity DNA polymerase (gene-optimal, 60070E) and the primers were used to amplify the target DNA of CCNH and candidalysin. The target DNA fragments were recovered and recombined with linearized pBiFC-VC155 (Vector), double cleaved by EcoRI (Thermo Scientific™, FD0583) and KpnI (Thermo Scientific™, FD0504), and pBiFC-VN173 (Vector), double cleaved by HindIII (Thermo Scientific™, FD0584) and XbaI (Thermo Scientific™, FD0503), respectively. Constructed pBiFC-VC155-CCNH and pBiFC-VN173-candidalysin were transformed into E. coli DH5α receptor cells (TIANGEN, CB101). The plasmids pBiFC-VC155-CCNH and pBiFC-VN173-candidalysin were co-transfected into 3 × 10^5 HEK293T cells by Lipofectamine™ 3000 (Thermo Scientific™, L3000001). The pBiFC-VC155 (Vector) and pBiFC-VN173 (Vector) plasmid were co-transfected into the control group. Transfected cells were incubated at 37 °C for 12 h and then switched to 4 °C for 2 h. The cells were imaged under the fluorescence microscope.

BALB/c mice = assay: Buried food-seeking test (latency to retrieve food); assay type: in vivo
Protocol: Buried food-seeking test was performed on the Day 0 before infection and on the Day 5. Foods were buried completely by litter in the upper left corner of the cage box (16 × 30 cm), and the mice began the exploration from the diagonal position of the cage box. The total time spent for locating and retrieving foods (latency to retrieve food) by each mouse was recorded (more than 10 min was recorded as a failed search). And then the video of each mouse retrieving the food was analyzed using VisuTrack Animal behavior analysis system (XinRuan Co. Ltd, Shanghai) for plotting the track and heatmap.

Which results are given for `CC[C@H](C)[C@H](NC(=O)CNC(=O)[C@H](CCSC)NC(=O)[C@@H](NC(=O)[C@@H](NC(=O)CNC(=O)[C@@H](NC(=O)[C@@H](NC(=O)[C@@H](N)CO)[C@@H](C)CC)[C@@H](C)CC)[C@@H](C)CC)[C@@H](C)CC)C(=O)N[C@@H](CC(C)C)C(=O)NCC(=O)N[C@@H](CC(N)=O)C(=O)N[C@H](C(=O)N1CCC[C@H]1C(=O)N[C@@H](CCC(N)=O)C(=O)N[C@H](C(=O)N[C@H](C(=O)N[C@@H](CCC(N)=O)C(=O)N[C@H](C(=O)N[C@H](C(=O)N[C@@H](CCSC)C(=O)N[C@@H](CO)C(=O)N[C@H](C(=O)N[C@H](C(=O)N[C@@H](CCCCN)C(=O)N[C@@H](C)C(=O)N[C@@H](Cc1ccccc1)C(=O)N[C@@H](CCCCN)C(=O)NCC(=O)N[C@@H](CC(N)=O)C(=O)N[C@@H](CCCCN)C(=O)O)C(C)C)[C@@H](C)CC)[C@@H](C)CC)[C@@H](C)CC)[C@@H](C)CC)C(C)C)[C@@H](C)CC` [Ece1-III]?
CCNH and γ-H2AX expression (A549 cells; A549, 10 μM): prominently elevated CCNH and γ-H2AX expression; γ-H2AX expression in CCNH knocked down cells (A549 cells; CCNH-KD A549, 10 μM candidalysin): maintained at low levels; γ-H2AX accumulation (FaDu cells [1]): triggered the accumulation of γ-H2AX; γ-H2AX expression (FaDu cells [2]): significantly elevated expression; γ-H2AX expression after short-term exposure (FaDu cells [2]; 10 µM, 4 h): gradually restored to control level; γ-H2AX expression during recovery after long-term exposure (FaDu cells [2]; 10 µM, 24 h): sustained higher expression of γ-H2AX even during the recovery period; CCNH expression (FaDu cells [2]; 24 h treatment): dose-dependent inhibition of CCNH expression; intracellular interaction with CCNH by BiFC (CCNH): formation of green fluorescence signals strongly reflects the intracellular interaction; Latency to retrieve food (BALB/c mice; Day 0 (Before infection), replicate 1): 220.46 s; Latency to retrieve food (BALB/c mice; Day 0 (Before infection), replicate 2): 258.4 s; Latency to retrieve food (BALB/c mice; Day 0 (Before infection), replicate 3): 285.22 s; Latency to retrieve food (BALB/c mice; Day 0 (Before infection), replicate 4): 511.04 s; Latency to retrieve food (BALB/c mice; Day 5 (Post infection), replicate 1): 531.34 s; Latency to retrieve food (BALB/c mice; Day 5 (Post infection), replicate 2): 599.98 s; Latency to retrieve food (BALB/c mice; Day 5 (Post infection), replicate 3): 599.98 s; Latency to retrieve food (BALB/c mice; Day 5 (Post infection), replicate 4): 595.54 s; Latency to retrieve food (BALB/c mice; mice, before and after candidalysin or PBS): longer latency to retrieve food
